This is an account of results in patent US5179109A (priority 1988, dated 1993).

The chains behind the UniProt entries cited, without tags or fusion partners.
UniProt P33535, whole entry: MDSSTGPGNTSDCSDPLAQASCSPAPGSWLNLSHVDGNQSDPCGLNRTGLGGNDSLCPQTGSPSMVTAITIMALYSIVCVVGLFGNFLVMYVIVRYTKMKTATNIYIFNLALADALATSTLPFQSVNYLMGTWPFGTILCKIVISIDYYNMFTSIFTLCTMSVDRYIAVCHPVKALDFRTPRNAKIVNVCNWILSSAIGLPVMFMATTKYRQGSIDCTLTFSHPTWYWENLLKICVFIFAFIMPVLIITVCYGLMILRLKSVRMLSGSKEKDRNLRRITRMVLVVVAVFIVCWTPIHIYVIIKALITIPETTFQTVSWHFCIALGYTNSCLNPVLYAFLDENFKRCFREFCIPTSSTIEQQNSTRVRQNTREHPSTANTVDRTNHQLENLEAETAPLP

For orientation: IC50 means the midpoint of a concentration-inhibition curve.

The test system of assay [1] is cerebral cholinergic muscarinic receptor. It is filed as binding, rat. As to conditions: ratio of IC50.
The next assay deals with T1, receptor of the opiates (Rattus norvegicus, UniProt P33535).
T1 construct: variable concentrations of the tested compound and a rat brain homogenate; from tissue; host or cells: rat brain homogenate
Briefly: Competition test with ^3 H-DHM for the receptor of the opiates. It is filed as binding. As to conditions: ratio of IC50. The procedure: In this test, a fixed concentration of ^3 H-DHM labelled morphine was incubated in the presence of variable concentrations of the tested compound and a rat brain homogenate. The concentration of the compound preventing the fixing of 50% of ^3 H-DHM (IC50) is a measure of the affinity of the compound for the receptor of the opiates. The latter also gives the results obtained with PCP and TCP, as well as the ratios H^3 DA/^3 H-TCP, ^3 HQNB/^3 H-TCP and ^3 HDHM/^3 HTCP obtained with the different tested compounds.

A further assay relates to site of PCP. Nature of the assay: Affinity for the PCP site, competition with (^3 H)PCP on rat brain homogenates. It is filed as binding. The conditions noted are these: rat brain homogenate, pH 7.7, 25° C., 1 nmole tritiated ligand.
A further assay concerns site of TCP. Briefly: Affinity for the TCP site, competition with (^3 H)TCP on rat brain homogenates. It counts as binding. As to conditions: rat brain homogenate, pH 7.7, 25° C., 1 nmole tritiated ligand; read-out: ^3 HTCP IC50.

For `C[C@@H]1CCCC[C@]1(c1cccs1)N1CCCCC1` (relative stereo) [compound 9, c-methyl-2-r-(piperidino-1)-1 (thienyl-2)-1 cyclohexane], the “^3 HQNB/^3 HTCP” value in assay [1] is listed as 631. In addition, the “^3 HDHM/^3 HTCP” value on receptor of the opiates worked out at 263. The results for the IC50 with site of PCP and with site of TCP were 40 nM and 19 nM, respectively.
